The list is not random: actives were taken first. Their share in the collection is about 2.8%.
PGC1a acetyl inh – PGC1a acetylation modulation, inhibitor mode | U2OS PGC1a acetylation, AlphaScreen anti-acetyl-lysine; with virally co-expressed GCN5 acetyltransferase | inhibition, % at 15.6 µM | 350,000 compounds, 0.17% hits;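 active = every replicate shows inhibition of at least 40%; inconclusive = mean inhibition at least 40% but some replicate below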
esBAF inh – blocks esBAF chromatin remodeling in mouse ES cells; Bmi1-luciferase knock-in reporter, 24 h; 100% = twice the neutral-well signal; reporter increase, % at 12.5 µM; 350,000 compounds, 2% hits; AID 602393; in the data active = activation above about 40%; inconclusive = no clear call, values can overlap the other calls;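 note: a rise in the Bmi1 reporter signal indicates esBAF inhibition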
C2C12 statin – protects C2C12 myotubes from simvastatin toxicity | ATP luminescence, 48 h; scaled: DMSO 0, geranylgeraniol control 100 | rescue of ATP level, % at 7.49 µM | 330,000 compounds, 0.78% hits;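 active = mean ATP rescue above about 67%, or every replicate alone reaching that limit, limit read from the data, passing the limit was not always enough; inconclusive = no clear call, values can overlap the other calls; inactive = mean under the limit and some replicate under it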;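 note: myotubes were challenged with 10 µM simvastatin during compound exposure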
PglD DTNB – PglD (C. jejuni) enzyme inhibition; 360,000 compounds, 0.098% hits; purified PglD enzyme, DTNB colorimetric CoA detection; inhibition, % at 12.5 µM; in the data active = inhibition above about 16%, passing the limit was not always enough; inconclusive = no clear call, values can overlap the other calls
E-selectin induc – E-selectin induction on HUVECs | HUVEC E-selectin immunofluorescence imaging; normalized: neutral wells 0, TNF-alpha wells 100 | activation, % at 7.58 µM | 260,000 compounds, 0.37% hits | AID 686992;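 active = mean E-selectin-positive cell signal at least 10% of the positive control, reached in at least 60% of replicates, without over 20% cell loss; inconclusive = no rule given, readout overlaps actives, possibly toxicity-flagged; inactive = the rest, including those meeting only one limit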
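System: HUVEC / Compound: single concentration / Signal: immunofluorescence imaging / Read-out: percent E-selectin-positive cells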
Yeast UUG start – modulators of start codon recognition fidelity in yeast. S. cerevisiae UUG-firefly luciferase reporter, luminescence/redox ratio. activity score, % at 18.7 µM. 0.13% of 350,000 active. AID 602363;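 active = replicate mean at a twofold rise or more, about +100% in these data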;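 also: firefly luciferase made from a UUG start codon reports start codon fidelity; reporter light over untreated wells divided by growth signal over untreated wells; some hits fall short of that in this replicate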
A number is an active result.

Cc1cc(C)c(C)c(S(=O)(=O)NCC(=O)N2CCCC2)c1C was read as PGC1a acetyl inh inactive, esBAF inh inactive, C2C12 statin 115, PglD DTNB inactive and Yeast UUG start inactive.
`CCCC#Cc1cnc2c(c1)C(=O)N([C@@H](C)CO)C[C@@H](C)[C@@H](CN(C)C(=O)Nc1cccc(F)c1)O2` gave PGC1a acetyl inh inactive, esBAF inh inactive, C2C12 statin inactive, PglD DTNB inactive, E-selectin induc inactive and Yeast UUG start inactive.
`CSc1ccccc1NC(=O)c1noc2c1CCC2` gave PGC1a acetyl inh inactive, esBAF inh 48, PglD DTNB inactive and Yeast UUG start inactive.
Screening CCc1ccc(NC(=O)c2noc3c2CCC3)cc1 returned PGC1a acetyl inh inactive, esBAF inh 73, C2C12 statin inactive and Yeast UUG start inactive.
Screening O=C(NCCc1ccccc1)c1noc2c1CCCCC2 returned PGC1a acetyl inh inactive, esBAF inh 50, C2C12 statin inactive, PglD DTNB inactive and Yeast UUG start inactive.
`Cc1ccc(O)c(NC(=O)c2noc3c2CCCCC3)c1` gave PGC1a acetyl inh inactive, esBAF inh 51, C2C12 statin inactive, PglD DTNB inactive and Yeast UUG start inactive.
`O=C(NCc1ccccc1)c1noc2c1CCCC2` gave PGC1a acetyl inh inactive, esBAF inh inactive, C2C12 statin inactive, PglD DTNB inactive and Yeast UUG start inactive.
`Cc1ccc(NC(=O)c2noc3c2CCCCC3)cc1` gave PGC1a acetyl inh inactive, esBAF inh inactive, C2C12 statin inactive, PglD DTNB inactive and Yeast UUG start inactive.
`CNC[C@@H]1Oc2ncc(Br)cc2C(=O)N([C@H](C)CO)C[C@H]1C` gave PGC1a acetyl inh inactive, esBAF inh inactive, C2C12 statin inactive and E-selectin induc inactive.
Cc1cccc(N=c2oc3cc(O)ccc3cc2C(N)=O)c1 was read as PGC1a acetyl inh inactive, esBAF inh 58, C2C12 statin 118, PglD DTNB inactive and Yeast UUG start inactive.
COc1ccc2c(c1)N(C)C(=O)CC(c1ccccc1)=N2 was read as PGC1a acetyl inh inactive, esBAF inh inactive, C2C12 statin 108, PglD DTNB inactive and Yeast UUG start inactive.
Screening COC(=O)C1=C(O)/C(=C\c2ccc(OCC(=O)Nc3ccccc3)cc2)N=C1C returned PGC1a acetyl inh inactive, esBAF inh inactive, C2C12 statin 104, PglD DTNB inactive, E-selectin induc inactive and Yeast UUG start inactive.
Oc1ccc(Nc2ccc3ccccc3c2)cc1 was read as PGC1a acetyl inh inactive, esBAF inh 49, C2C12 statin inactive, PglD DTNB inactive, E-selectin induc inactive and Yeast UUG start inactive.
For Cc1cccc(-c2nnc3sc(-c4ccccc4)nn23)c1 the results were PGC1a acetyl inh inactive, esBAF inh 42, C2C12 statin inactive, PglD DTNB inactive and Yeast UUG start inactive.
Screening c1ccc(-c2nn3c(-c4ccccc4)nnc3s2)cc1 returned PGC1a acetyl inh inactive, esBAF inh inactive, C2C12 statin inactive and Yeast UUG start inactive.
Screening COc1ccccc1/C=N/NC(=O)C(=O)N1CCN(c2ccccc2OC)CC1 returned PglD DTNB inactive and Yeast UUG start inactive.
For COc1ccccc1N1CCN(C(=O)C(=O)N/N=C/c2cccc(O)c2)CC1 the results were PGC1a acetyl inh inactive, esBAF inh inactive, C2C12 statin 96, PglD DTNB inactive and Yeast UUG start inactive.
Screening Cc1ccc(Nc2nc(-c3ccc(F)cc3)cs2)nc1 returned esBAF inh 76, C2C12 statin inactive, PglD DTNB inactive and Yeast UUG start inactive.
Cc1ccnc(Nc2nc(-c3ccccc3)cs2)c1 was read as PGC1a acetyl inh inactive, esBAF inh inactive, C2C12 statin inactive, PglD DTNB inactive and Yeast UUG start inactive.
Screening CC(=O)Nc1ccc(-c2csc(Nc3cc(C)ccn3)n2)cc1 returned PGC1a acetyl inh inactive, esBAF inh inconclusive, C2C12 statin inactive, PglD DTNB inactive, E-selectin induc inactive and Yeast UUG start inactive.
Screening CC(=O)Nc1cccc(-c2csc(Nc3cc(C)ccn3)n2)c1 returned PGC1a acetyl inh inactive, esBAF inh 48, C2C12 statin inactive, PglD DTNB inactive and Yeast UUG start inactive.
c1ccc(Nc2nc(-c3cccnc3)cs2)nc1 was read as PglD DTNB inactive and Yeast UUG start inactive.
For COc1ccc(-c2csc(Nc3cc(C)ccn3)n2)cc1OC the results were PGC1a acetyl inh inactive, esBAF inh 43, C2C12 statin inactive, PglD DTNB inactive and Yeast UUG start inactive.
`Fc1ccc(-c2csc(Nc3ccccn3)n2)cc1` gave esBAF inh inactive, C2C12 statin 154, PglD DTNB inactive and Yeast UUG start inactive.
CCCNC(=O)N1CC2(CN(CC3CCOCC3)C2)c2c(n(C)c3cc(OC)ccc23)[C@H]1CO was read as PGC1a acetyl inh inactive and E-selectin induc inactive.
Screening CCC(=O)N1CCC2(CC1)CN(Cc1cc(F)ccc1F)[C@@H](CO)c1[nH]c3cc(OC)ccc3c12 returned PGC1a acetyl inh inactive and E-selectin induc inactive.
For C[C@@H]1CCCCO[C@H](CN(C)C(=O)Nc2ccccc2)[C@@H](C)CN([C@H](C)CO)C(=O)c2cc(NC(=O)NC3CCCCC3)ccc2O1 the results were PGC1a acetyl inh inactive, esBAF inh inactive, PglD DTNB inactive and Yeast UUG start inactive.
`COc1ccc(-c2csc(Nc3ccc(C)cn3)n2)cc1OC` gave PGC1a acetyl inh inactive, esBAF inh 61, C2C12 statin inactive, PglD DTNB inactive and Yeast UUG start inactive.
`O=C(CCS(=O)(=O)c1ccccc1Cl)NC1CCCCCC1` gave esBAF inh 49, C2C12 statin inactive, PglD DTNB inactive and Yeast UUG start inactive.
Screening O=C(CCS(=O)(=O)c1cccc2nsnc12)NC1CCCCC1 returned PGC1a acetyl inh inactive, esBAF inh inactive, C2C12 statin inactive, PglD DTNB inactive and Yeast UUG start inactive.
For O=C(CCS(=O)(=O)c1ccccc1)NC1CCCCC1 the results were PGC1a acetyl inh inactive, PglD DTNB inactive, E-selectin induc inactive and Yeast UUG start inactive.
Screening COc1ccc(S(=O)(=O)CCC(=O)NC2CCCCC2)cc1 returned PGC1a acetyl inh inactive, esBAF inh inactive, C2C12 statin 87, PglD DTNB inactive and Yeast UUG start inactive.
Cc1cc(NC(=O)c2n[nH]c(=O)c3ccccc23)ccc1Br was read as E-selectin induc inactive.
Screening CC(C)c1ccc(NC(=O)c2n[nH]c(=O)c3ccccc23)cc1 returned PGC1a acetyl inh 108, esBAF inh 60 and C2C12 statin inactive.
For CCCCOC(=O)c1ccc(-c2ccc(/C=N/NC(=S)NCC)o2)cc1 the results were PGC1a acetyl inh inactive, esBAF inh 46 and C2C12 statin inactive.
`CCCOC(=O)c1ccc(-c2ccc(C=O)o2)cc1` gave PGC1a acetyl inh inactive, esBAF inh 76, C2C12 statin inactive, PglD DTNB inactive and Yeast UUG start inactive.
Screening CCCOC(=O)c1cc(-c2ccc(C=O)o2)ccc1Cl returned PGC1a acetyl inh inactive, PglD DTNB inactive, E-selectin induc inactive and Yeast UUG start inactive.

Screens: PubChem BioAssay, Broad Institute
